For the assay, the target named is Broad substrate specificity ATP-binding cassette transporter ABCG2 (Homo sapiens, UniProt Q9UNQ0). The experiment in a line: TP_TRANSPORTER: efflux of Hoechst33342 in BCRP-expressing Sf9 cells. The class given is functional.

By UniProt entry, the sequences of proteins in these tests, tags left out. Where a name states a change or a piece, a line headed by the entry shows the natural chain unless it says otherwise.
UniProt Q9UNQ0: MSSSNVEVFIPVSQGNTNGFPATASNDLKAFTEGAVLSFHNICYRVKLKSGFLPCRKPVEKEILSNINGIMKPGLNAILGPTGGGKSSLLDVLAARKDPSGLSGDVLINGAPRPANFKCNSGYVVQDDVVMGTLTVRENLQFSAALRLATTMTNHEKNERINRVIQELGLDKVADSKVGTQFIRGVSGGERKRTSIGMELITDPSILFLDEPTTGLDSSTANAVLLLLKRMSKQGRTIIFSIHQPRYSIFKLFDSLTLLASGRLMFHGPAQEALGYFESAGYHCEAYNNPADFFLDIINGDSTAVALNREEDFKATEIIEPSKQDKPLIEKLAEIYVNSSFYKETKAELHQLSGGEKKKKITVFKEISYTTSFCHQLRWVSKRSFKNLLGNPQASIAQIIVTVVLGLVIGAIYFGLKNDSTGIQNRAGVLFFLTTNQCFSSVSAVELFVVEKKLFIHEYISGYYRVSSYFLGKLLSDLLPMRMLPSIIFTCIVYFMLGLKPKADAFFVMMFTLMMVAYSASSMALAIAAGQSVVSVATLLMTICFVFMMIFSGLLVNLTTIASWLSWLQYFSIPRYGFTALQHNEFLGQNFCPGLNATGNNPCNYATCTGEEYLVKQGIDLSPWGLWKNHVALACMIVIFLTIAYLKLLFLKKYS

In turn, `COc1cc2ncnc(Nc3ccc(F)c(Cl)c3)c2cc1OCCCN1CCOCC1` [GEFITINIB] registered a half-maximal inhibitory concentration (IC50) of 400 nM.

The values above are taken from ChEMBL document CHEMBL2074416, “High-affinity interaction of tyrosine kinase inhibitors with the ABCG2 multidrug transporter” (Mol Pharmacol, 2004).
